Tested on: female mice of ddN strain
Test: Phenylquinone method (analgesic activity, chemical pain)
Format: in vivo, mouse
Conditions: p.o., drug 30 minutes before challenge

CN(C)C(Cc1ccccc1)c1ccccc1 (stereo not shown)
Phenylquinone method (analgesic activity): 52.3

COc1ccc(CC(c2ccccc2)N2CCN(c3ccccc3OC)CC2)cc1 (racemic)
Phenylquinone method (analgesic activity): 38.5

COc1ccccc1N1CCN(C(Cc2ccc(C)cc2)c2ccccc2)CC1 (racemic)
Phenylquinone method (analgesic activity): 49.4

COc1ccccc1N1CCN(C(Cc2ccc(Cl)cc2)c2ccccc2)CC1 (racemic)
Phenylquinone method (analgesic activity): 83

From US3957788A (priority 1974, dated 1976)
